System: S. pneumoniae ATCC 49619
Assay: post-antibiotic effect (PAE) testing
Settings: 4X MIC, exposure 1 hour

Structure (SMILES) | PAE [h]
CC[C@H]1OC(=O)[C@@](C)(F)C(=O)[C@H](C)[C@@H](OC2OC(C)CC(N(C)C)C2O)[C@@](C)(OC)C[C@@H](C)C(=O)[C@H](C)[C@H]2N(CCCCn3cc(-c4cccc(N)c4)nn3)C(=O)O[C@]12C (some centres unmarked) [CEM-101, 11-N-4-(3-aminophenyl)-[1,2,3]triazol-1-yl]-butyl}-5-desosaminyl-3-oxo-2-fluoro-erythronolide A,-11,12-cyclic carbamate] | 3.0
CC[C@H]1OC(=O)[C@H](C)C(=O)[C@H](C)[C@@H](O[C@@H]2O[C@H](C)C[C@H](N(C)C)[C@H]2O)[C@](C)(OC)C[C@@H](C)C(=O)[C@H](C)[C@H]2N(CCCCn3cnc(-c4cccnc4)c3)C(=O)O[C@]12C [TEL, telithromycin] | 1.9
